According to patent US6835539B1, “Nucleic sequences coding for an AT2 interacting proteins interacting with the AT2 receptor and their applications” (priority 1998, dated 2004):

Target: T1, AT2 receptor (Homo sapiens, UniProt P50052)
T1 sequence (P50052 1-363): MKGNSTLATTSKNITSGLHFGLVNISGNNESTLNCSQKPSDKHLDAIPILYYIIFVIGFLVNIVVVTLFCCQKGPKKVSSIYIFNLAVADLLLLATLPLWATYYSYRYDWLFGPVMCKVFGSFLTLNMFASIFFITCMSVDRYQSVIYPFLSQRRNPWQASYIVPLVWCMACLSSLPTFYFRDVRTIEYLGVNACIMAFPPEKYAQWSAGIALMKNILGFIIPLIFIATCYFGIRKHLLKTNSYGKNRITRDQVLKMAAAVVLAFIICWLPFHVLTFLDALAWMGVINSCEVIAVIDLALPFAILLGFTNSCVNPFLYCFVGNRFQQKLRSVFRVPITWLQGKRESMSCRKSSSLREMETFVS
Assay: Inhibition of insulin-induced tyrosine phosphorylation in CHO-hAT2 cells
Type: cell-based
Parameters: a plasmid containing the region encoding the human AT2 receptor; expressed in transfected cells; host or cells: CHO cells deficient in dihydrofolate reductase (clone CHO-hAT2)
Conditions: 100 nM, all insulin doses between 0.1 and 0.001 μg/ml, 5 minutes
Excerpt: For that, a stable clone of CHO-hAT2 cells expressing the ATIPmouse-long protein (CHO-hAT2-ATIP), obtained according to the methodology described in Example 4, was used; the functional test for the activity of the AT2 receptor developed on the CHO-hAT2 clone which consists in inhibiting the phosphorylation of the IRβ subunit of the insulin receptor induced by its ligand, was reproduced.
The CHO-hAT2 cells are inoculated at a density of 3×10^6 cells per dish having a diameter of […]. They are made quiescent by 16 hours of deprivation before being treated. The treatment consists in bringing into contact for 5 minutes with 15 ml of F12 medium containing insulin supplemented or otherwise with CGP42112 (selective agonist of the AT2 receptor). […] After bringing into contact and washings, the lectin beads coupled to Sepharose (Pharmacia) are recovered in sample buffer containing SDS and the eluted proteins are analysed in SDS-PAGE followed by immunoblotting with anti-phosphotyrosine antibodies (Upstate Biotechnology, Inc.) or anti-IRβ antibodies (described in Issad, T. et al., cited above).

inhibition of the phosphorylation of IRβ induced by insulin: inhibit
Substance: Angiotensin II
